pIC50: −log10 of the molar value.
Biological target: E3 ubiquitin-protein ligase XIAP (Homo sapiens, UniProt P98170)
Experiment: SAR analysis of Antagonists of IAP-family anti-apoptotic proteins
Source text: Compounds are either acquired from commercial sources or synthesized internally.

Amino acid sequences for entries named in this document (tags omitted).
UniProt P98170, whole entry: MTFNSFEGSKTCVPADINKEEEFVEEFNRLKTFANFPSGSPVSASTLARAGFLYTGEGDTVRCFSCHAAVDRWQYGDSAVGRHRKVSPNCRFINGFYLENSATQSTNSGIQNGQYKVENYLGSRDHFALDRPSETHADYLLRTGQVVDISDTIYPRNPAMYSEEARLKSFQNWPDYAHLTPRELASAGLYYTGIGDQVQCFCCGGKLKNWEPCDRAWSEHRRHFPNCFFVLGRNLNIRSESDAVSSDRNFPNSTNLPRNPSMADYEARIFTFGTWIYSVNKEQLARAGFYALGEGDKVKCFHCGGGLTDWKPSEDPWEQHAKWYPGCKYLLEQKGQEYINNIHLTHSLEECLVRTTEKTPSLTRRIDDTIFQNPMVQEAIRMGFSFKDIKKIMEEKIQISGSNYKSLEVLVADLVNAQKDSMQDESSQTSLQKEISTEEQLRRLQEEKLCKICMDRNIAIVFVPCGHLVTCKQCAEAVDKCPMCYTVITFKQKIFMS

## CNC(C)C(=O)NC(C(=O)N1CCCC1C(=O)NC(C(=O)NCCCCCNC(=O)C(NC(=O)C1CCCN1C(=O)C(NC(=O)C(C)NC)C1CCCCC1)C(c1ccccc1)c1ccccc1)C(c1ccccc1)c1ccccc1)C1CCCCC1 (stereo unspecified) [MLS-0390866.0001]
  pIC50: 4.77
